## Binding of CDR-mutated scFvs to a peptide of the spike HR2 region

The target is the same throughout: PDVDLGDISGINAS, from the HR2 region of SARS-CoV-2 spike.

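Phage display of a naive human antibody library on the peptide gave the parent. The library (AAYL52) carries one to three amino acid substitutions per variant, with no insertions or deletions. Affinity was read by AlphaSeq, a pooled yeast mating assay with surface-displayed partners. Mating (16 h, 30 °C) was followed by selection of diploids and sequencing of their barcodes. Read counts were normalised to the haploid input and turned into Kd by a linear fit to BCL2-family pairs of known affinity, for each replicate. There are three technical replicates.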

The variants keep the heavy chain, the linker and the frameworks of Ab-95 (scFv order VH, the linker GGGGSGGGGSGGGGS, VL).
VH: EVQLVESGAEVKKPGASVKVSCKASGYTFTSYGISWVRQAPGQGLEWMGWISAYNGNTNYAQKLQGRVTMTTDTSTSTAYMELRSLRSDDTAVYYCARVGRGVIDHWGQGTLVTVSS
VL: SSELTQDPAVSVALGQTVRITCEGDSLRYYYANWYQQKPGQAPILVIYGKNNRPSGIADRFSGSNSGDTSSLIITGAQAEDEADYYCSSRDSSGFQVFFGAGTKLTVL

Each variant is given by its three light chain CDRs, as the data file delimits them; those of the parent are EGDSLRYYYAN, GKNNRPS, SSRDSSGFQVF. Values are apparent Kd, the geometric mean of the replicates that gave a signal; lower means stronger binding. An entry "not detected" has no value in the source: the pair was not observed among the diploids in any replicate. This suggests poor binding but is not conclusive. Parent in this assay: reference entry 200 nM, copy in this library 180 nM.

Kd (apparent)	replicates with signal	empty controls	CDR-L1	CDR-L2	CDR-L3
21 µM	3/3	6/9	EGDSLRYYYLS	GKNNRPS	SSRDSSGSQVF
1.9 µM	2/3	3/9	EGDSLRYHYAN	GKNNRPS	SSRDSSGFQLS
1.5 µM	3/3	3/9	EGDSLRDYYAN	GKNDRPS	SSRDSSGFSVF
21 µM	1/3	4/9	EPDSLRGYYAN	GKNNRPS	SSRDSSGCQVF
17 µM	1/3	2/9	EDDSLRYVYAN	GKNNRPS	SSRDSSGPQVF
65 µM	2/3	0/9	EGDSLRYYYAN	GKSNRPS	SSRDSSNFQVL
19 µM	3/3	3/9	EGDSKRYYYAN	GKTNRPS	SPRDSSGFQVF
2.7 µM	3/3	3/9	EGDSLRYYYAN	GKNNRPS	SSRDSDWFCVF
10 µM	3/3	3/9	EMDALRYYYAN	GKNNRPS	SSRDSSGFQVR
2.0 µM	1/3	3/9	EGDSGRYYYAN	GKCNRPS	SSRNSSGFQVF
320 nM	3/3	3/9	EGMYLRYYNAN	GKNNRPS	SSRDSSGFQVF
50 µM	1/3	2/9	EGDFLRYYYAN	GKNNRPS	SSRESSGFQVF
1.5 µM	1/3	2/9	EGDSLRVYYAN	GKNNRPS	SFRDSSGFQVP
69 µM	3/3	6/9	EGDKLRYYYAN	GKNNRQS	SSRDSSGFQVQ
2.0 µM	1/3	0/9	EGYSLRYYYAN	GKNNRPV	SSRDISGFQVF
680 nM	3/3	4/9	EGSSLRYYYAN	GKNNRPS	SSRDSSGFKVF
2.6 nM	3/3	5/9	EGDSLRYNQAN	GKNFRPS	SSRDSSGFQVF
2.8 µM	3/3	6/9	EGDSLRYYYAN	GKNNRPS	SSRDDSGKHVF
1.8 µM	1/3	1/9	EGDSLRYYYAN	QKNNRPS	SSRDSRGFQVF
6.4 nM	3/3	3/9	EGDSLRYGYAN	GKNNRPS	SSCDSCGFQVF
44 µM	1/3	2/9	EGDSMRYYYAN	GKNKRPS	SSRDCSGFQVF
not detected	0/3	1/9	EGDSLRYVYAN	GKNNRPS	SSRDSSHFIVF
not detected	0/3	3/9	FGDSLRYYMAN	GKNNRPS	SSQDSSGFQVF
580 nM	3/3	2/9	EGDSLRYYYAN	GKNNREN	SSRDSSGFTVF
16 µM	1/3	2/9	EGDSLRYYYAK	GKNNDPS	SSRDSSGFQFF
950 nM	2/3	3/9	EGDSLRYYYFN	NKNDRPS	SSRDSSGFQVF
540 nM	3/3	2/9	EGDVLRYYNAN	GKNNRPS	SSRDSSGFWVF
1.6 µM	3/3	4/9	EGDSLRYKYAN	GKNNRPS	QWRDSSGFQVF
120 nM	3/3	1/9	EGDSLRHYYAN	GKNNRPS	QSRDMSGFQVF
5.3 µM	3/3	5/9	EYDSLRYYYAN	GKNNRPS	SSRDSSGPQVF
48 µM	3/3	2/9	EGDSLRYYYAN	MKNNRPS	SSWDSSGFQVQ
28 µM	1/3	0/9	EGDSMRYYYAN	GKNNRPS	SSRISSSFQVF
not detected	0/3	0/9	EGDSLRYYYAN	GKNNRPS	SSRDSSAQQVF
not detected	0/3	1/9	EGDSNRYYYAN	MKNNRPS	SSRDSSGCQVF
not detected	0/3	3/9	EGDSLRYYYAN	GKNNLPS	FSRDSSVFQVF
17 µM	1/3	2/9	EGDSLRYYYAN	GKNNDPS	YSRTSSGFQVF
1.6 µM	2/3	0/9	EGDSLRYYKAN	GKNNHPS	PSRDSSGFQVF
34 µM	1/3	1/9	EGDSLRYYYAN	HKNHRPS	SSRESSGFQVF
2.6 µM	2/3	1/9	EGDSLRYYYAN	GKNNRPS	SSTDSSAFQVN
22 µM	3/3	2/9	EGDYLRYYYAN	GPNNRPS	SSRDSSGFGVF
1.2 µM	3/3	3/9	EGDSLRYYLAN	GKNNRPS	SCRDSSGFTVF
12 µM	2/3	3/9	EGDSLRYYYAC	GKNNIIS	SSRDSSGFQVF
1.0 µM	3/3	3/9	EGDRLRYGYAN	GKNNRPS	SRRDSSGFQVF
19 nM	3/3	0/9	GGDSLRYHYAN	GKNNRPS	SSRDSSGFQVN
22 µM	3/3	2/9	EGDSLRYYYAS	GKTNRPS	SSRDSSGFWVF
700 nM	2/3	1/9	CGDSLHYWYAN	GKNNRPS	SSRDSSGFQVF
5.8 µM	1/3	3/9	EGDSLRYYYAC	GKNNRPP	SSRDSSGFQQF
12 µM	2/3	1/9	EGDTLRYYYAN	GKNNRPS	SSFDISGFQVF

The first 4 entries again:

{"CDR-L1": "EGDSLRYYYLS", "CDR-L2": "GKNNRPS", "CDR-L3": "SSRDSSGSQVF", "Kd (apparent)": "21 µM", "replicates with signal": "3/3", "empty controls": "6/9"}
{"CDR-L1": "EGDSLRYHYAN", "CDR-L2": "GKNNRPS", "CDR-L3": "SSRDSSGFQLS", "Kd (apparent)": "1.9 µM", "replicates with signal": "2/3", "empty controls": "3/9"}
{"CDR-L1": "EGDSLRDYYAN", "CDR-L2": "GKNDRPS", "CDR-L3": "SSRDSSGFSVF", "Kd (apparent)": "1.5 µM", "replicates with signal": "3/3", "empty controls": "3/9"}
{"CDR-L1": "EPDSLRGYYAN", "CDR-L2": "GKNNRPS", "CDR-L3": "SSRDSSGCQVF", "Kd (apparent)": "21 µM", "replicates with signal": "1/3", "empty controls": "4/9"}

Background: pairings of library AAYL52 with three empty control strains gave a value in 28% of cases (median 8.2 µM, 5th percentile 800 nM). Values in that range, when seen in few replicates, are hard to tell from nonspecific mating. For each scFv, signals with the empty controls are counted beside the result.

The measurements come from Engelhart et al. 2022 (doi:10.1038/s41597-022-01779-4) through the FLAb antibody collection.